The source of these data is PubChem BioAssay AID1224817 (Yan Lab, Georgia Cancer Center, Augusta University, 2016).

Only a part is listed here, and it is no random draw. Activity calls are given as the source filed them.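 How the source made its calls: active means log2 luciferase ratio at or below -0.5849, meaning signal at two thirds of solvent-only control or lower; inactive means the rest.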

A short description of the test: eIF4E expression suppression, luciferase knock-in reporter – cell-based, HT1080, primary screen (AID 1224817).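 Further: luciferase reports endogenous eIF4E expression since it is co-expressed from the native EIF4E locus.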 The note with it: HT1080 EIF4E-luc2 knock-in reporter, 16 h, at 2.5 µM, hits give low values.
Turning to `NNC(NN)NN.n1nc(-c2nn[nH]n2)n[nH]1`, the log2 luciferase activity ratio is inactive: -0.344. As to `N1=C(c2nnc(-c3nn[nH]n3)nn2)NNN1`, the log2 luciferase activity ratio is inactive: -0.0416.
